## Experimental properties from OPERA 2.9

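OPERA's authors assembled the values from existing databases and did not measure them anew. A listed value is a point estimate from one report or more. Method, purity and exact conditions of the single measurements are not given. A value may pool stereoisomers or salt forms, and the file does not say which form was measured. Some entries may be limits or estimates that an upstream database listed as plain numbers.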

The melting point is given in degrees Celsius. The boiling point refers to atmospheric pressure (760 mmHg), by the definition of the set. logP is the log10 of the octanol-water partition coefficient; higher is more lipophilic. Water solubility is log10 of mol/L, nominally at 25 °C; higher is more soluble. Vapor pressures (log10 mmHg) refer to near room temperature, 15 to 30 °C; higher is more volatile. The unbound fraction in human plasma runs from 0 (all bound) to 1 (all free). Clint is human hepatic intrinsic clearance in µL/min per million cells; 0 means that no clearance was seen.

The entry for C=C(C)C(=O)OCCC(F)(F)C(F)(F)C(F)(F)C(F)(F)C(F)(F)C(F)(F)F [3,3,4,4,5,5,6,6,7,7,8,8,8-Tridecafluorooctyl methacrylate] lists MP -37 °C and logP 5.2 and log solubility -6.535 (log10 mol/L) and log VP -1.274 (log10 mmHg). For CC[N+]1=C(c2ccc3c(c2)C(C)CC(C)(C)N3CCO)c2cccc3cccc1c23.[Cl-] (stereo not given) the data give MP 120 °C and logP -0.1. Listed for COCCOCCCn1c(=O)c2c(N)c3c(=O)c4ccccc4c(=O)c3c(N)c2c1=O: logP 4.44 and log solubility -8.265 (log10 mol/L) and log VP -7.694 (log10 mmHg). Listed for CCCCCCC(O)CCCCCCCCCCCO (stereo not given) [Octadecane-1,12-diol]: MP 68 °C and boiling point 372.4 °C and log solubility -5.307 (log10 mol/L). The entry for CCCCCCCCCCCC(=O)OCC(C)C [Isobutyl laurate] lists MP -14 °C and log solubility -7.932 (log10 mol/L). CC1=C(/C=C/C(C)=C\C[P+](c2ccccc2)(c2ccccc2)c2ccccc2)C(C)(C)CC(O)C1=O.[Br-] (stereo partly drawn) has MP 163 °C and logP -0.04. The entry for Cc1cc(O)c(C(C)(C)C)cc1Sc1cc(C(C)(C)C)c(O)cc1C [4,4'-Thiobis(6-tert-butyl-m-cresol)] lists logP 5.485 and log VP -6.222 (log10 mmHg). C=CCOC(=O)C1CCCCC1C(=O)OCC=C (stereo not given) [Diprop-2-en-1-yl cyclohexane-1,2-dicarboxylate] is reported with logP 3.54 and log solubility -3.361 (log10 mol/L).

For O=C1c2ccccc2C(=O)N1CCS(=O)(=O)Cl [2-Phthalimidoethanesulfonyl chloride] the data give MP 159.1 °C and log VP -9.544 (log10 mmHg). Listed for O=C(CCCCC(=O)OCC1CCC2OC2C1)OCC1CCC2OC2C1 (stereo not given) [Bis[(3,4-epoxycyclohexyl)methyl] adipate]: logP 2.98 and log solubility -5.263 (log10 mol/L) and log VP -6.813 (log10 mmHg). O=C(c1ccccc1)C1CCCCC1 [Cyclohexylphenylketone] has logP 3.7 and log solubility -4.015 (log10 mol/L) and log VP -2.293 (log10 mmHg). Listed for CC1CN(c2ccccc2)NC1=O (stereo not given) [4-Methyl-1-phenylpyrazolidin-3-one]: logP 0.624 and log solubility -2.368 (log10 mol/L). Cc1ccc(Cl)cc1N=Nc1c(O)c(C(=O)Nc2cc(C)c(NC(=O)c3cc4ccccc4c(N=Nc4cc(Cl)ccc4C)c3O)cc2C)cc2ccccc12 has logP 0.53 and log solubility -7.678 (log10 mol/L). Listed for CC#C[C@]1(O)CC[C@H]2[C@@H]3CCC4=CC(=O)CCC4=C3[C@@H](c3ccc(N(C)C)cc3)C[C@@]21C [Mifepristone]: logP 4.5 and log solubility -5.9 (log10 mol/L) and Clint 29.9 µL/min/10^6 cells. CCCCC(=O)N(Cc1ccc(-c2ccccc2-c2nn[nH]n2)cc1)[C@H](C(=O)OCc1ccccc1)C(C)C [Valsartan benzyl ester] has MP 175 °C and logP 2.43 and log solubility -5.766 (log10 mol/L) and log VP -8.886 (log10 mmHg). Listed for Clc1ccc(COC(Cn2ccnc2)c2ccc(Cl)cc2Cl)cc1.O=[N+]([O-])O (stereo not given) [Econazole nitrate]: fu 0.00553 and Clint 6.02 µL/min/10^6 cells.

The entry for O=C1CCCCCCCCCCC1Cl (stereo not given) [2-Chlorocyclododecanone] lists MP 58 °C and log VP -3.426 (log10 mmHg). Cn1nnc2c(C(N)=O)ncn2c1=O [Temozolomide] is reported with logP -2.8 and fu 0.85. OCC(CO)N[C@H]1C[C@](O)(CO)[C@@H](O)[C@H](O)[C@H]1O [Voglibose] has log solubility -0.148 (log10 mol/L) and fu 0.86.

A selection of 2 entries from above:

{"smiles": "CCCCCCCCCCCC(=O)OCC(C)C", "name": "Isobutyl laurate", "MP (°C)": "-14", "log solubility (log10 mol/L)": "-7.932"}
{"smiles": "OCC(CO)N[C@H]1C[C@](O)(CO)[C@@H](O)[C@H](O)[C@H]1O", "name": "Voglibose", "log solubility (log10 mol/L)": "-0.148", "fu": "0.86"}

Data: OPERA 2.9 data sets, kmansouri/OPERA on GitHub.